In article PMC9865214, “Unique, Specific CART Receptor-Independent Regulatory Mechanism of CART(55-102) Peptide in Spinal Nociceptive Transmission and Its Relation to Dipeptidyl-Peptidase 4 (DDP4)” (International Journal of Molecular Sciences, 2023):

System: DPP4
Assay: DPP4 inhibitor screening assay
Type: biochemical
Conditions: fluorogenic Gly-Pro-AMC substrate; ex 355 nm, em 460 nm; triplicates

N[C@@H](CC(=O)N1CCn2c(nnc2C(F)(F)F)C1)Cc1cc(F)c(F)cc1F [Sitagliptin]
DPP4 enzyme activity/inhibition: completely abolished DPP4 enzyme activity
